# Measurements: PubChem BioAssay AID1347056 (Sanford-Burnham Center for Chemical Genomics, 2019)
# The entries are a selection whose mix differs from that of the whole data set. The source made the active and inactive calls.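 How the source made its calls: active means compounds whose plate-normalised and pattern-corrected inhibition of the luciferase reporter signal at the single screening dose is 50% or more; inactive means the rest.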
# Assay: inhibitors of TROY-driven NF-kB signaling, primary screen, Q293 LMP1-TROYcd cells, NF-kB luciferase, uHTS (AID 1347056)
# Details: Q293 LMP1-TROYcd NF-kB luciferase reporter, 4 h; at 10 µM; stronger effect = higher value
row,Compound,inhibition
1,CCC(=O)N(c1ccccc1)C1(COC)CCN(CCc2cccs2)CC1,inactive: -0.89%
2,CCC(=O)N(c1ccccc1)C1(COC)CCN(CCn2nnn(CC)c2=O)CC1,inactive: 20.5%
